Assay results as given in ChEMBL document CHEMBL5096200, “A short survey of dengue protease inhibitor development in the past 6 years (2015-2020) with an emphasis on similarities between DENV and SARS-CoV-2 proteases” (Bioorg Med Chem, 2021).

Biological target: Genome polyprotein (dengue virus type 2, UniProt P29990)

## O=C(O)c1ccccc1-c1c2cc(I)c(=O)c(I)c-2oc2c(I)c(O)c(I)cc12
  IC50: 15 µM
